The target in the assay is M. smegmatis ClpC1^NTD (Mycolicibacterium smegmatis, UniProt A0R574). The experiment in a line: microscale thermophoresis. As to conditions: 0.1 μM ClpC1^NTD-FITC (labelled protein); 25 mM HEPES, 200 mM NaCl, 10 mM MgCl2, 0.1 mM EDTA, pH 7.0, 0.05% Tween 20, 8 mg/mL BSA; noncooperative single-site quadratic fit. (In general: In MST a laser heats a spot of the sample, and binding alters the fluorescence response.)

The chains behind the UniProt entries cited, without tags or fusion partners. Residues count along the entry.
UniProt A0R574, 1-147 limits assumed: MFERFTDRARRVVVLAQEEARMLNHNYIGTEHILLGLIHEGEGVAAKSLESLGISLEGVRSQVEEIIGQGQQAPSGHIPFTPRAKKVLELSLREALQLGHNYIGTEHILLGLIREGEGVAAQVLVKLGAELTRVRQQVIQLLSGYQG

Broadly, the Kd is a measure of binding affinity in units of concentration.

Turning to `N=C(NCCC[C@H](N)C(=O)O)NP(=O)(O)O`, the Kd amounted to 1400 nM.

(Values after publication PMC9604228, “Identification of Arginine Phosphorylation in Mycolicibacterium smegmatis” (2022).)
